The data set concerns 3T3-L1 cells. Kind of data set: Cytotoxicity, MTT assay of cell survival. The settings on record: cultivated mice 3T3-L1 cells, 24 hours incubation. The format is cell-based. The method, then:
3T3-L1 cells were incubated at 95% humidity, in the 5% CO2 atmosphere, at 37° C. Cultivation was performed in DMEM medium comprising 7% FCS, 2 mM of glutamine, 100 U/ml of penicillin, 100 μg/ml of streptomycin and 0.25 μg/ml of amphotericin B. Cells were subcultured every 48-72 hours. For the purpose of suspending the cells were incubated in Versene's solution within 1 minute and in Trypsin-EDTA solution within 1 minute (0.25%).
Cells were inoculated by 30 thousand into wells of 96-well plate (monolayer) in 100 μl of medium for MTT-test. After 24 hours of cultivation 100 μl of test substances in the medium used for cell culture were added to the cells with replacement of culture medium with a new one. Cells were incubated with test substances for 24 hours. Cells, to which 100 μl of medium used for cell culture were added to, were used as […].
Assessment of cell survival in the culture using the MTT assay After the incubation, the medium was removed from each well, and then 100 μl of MTT solution were added to each well (0.5 mg/ml of MTT, 3.5 mg/ml of D-glucose in Hanks' solution). The plate was placed into CO2-incubator (Ependorf, Germany) for 1.5 h. […] Then, the solution optical density was determined at the wavelength of 576 nm and 620 nm using a plate reader (EFOS 9305, OAO MZ Sapphir).
On the technique in general: Formazan colour is commonly taken as a measure of viable cells.

In general, EC50 refers to the concentration that produces a half-maximal response.

“Prostaglandin F2α Amide with γ-Aminobutyric Acid Nitroethanolamide [Compound 8]” registered an EC50 of 194 ± 4 µM.

Values taken from patent US12012375B2, “Prostaglandin F2 alpha derivatives for decreasing intraocular pressure” (GURUS BIOPHARM LIMITED LIABILITY COMPANY, priority 2018, dated 2024).
